Our source for the IC50 values is US8211885B2, “Cyclic indole-3-carboxamides, their preparation and their use as pharmaceuticals” (Sanofi-Aventis, priority 2008, dated 2012).

Protein sequences, listed by entry. Tags and fused reporters are not part of them. Residues count along the entry.
UniProt P00797, 67-406 limits assumed: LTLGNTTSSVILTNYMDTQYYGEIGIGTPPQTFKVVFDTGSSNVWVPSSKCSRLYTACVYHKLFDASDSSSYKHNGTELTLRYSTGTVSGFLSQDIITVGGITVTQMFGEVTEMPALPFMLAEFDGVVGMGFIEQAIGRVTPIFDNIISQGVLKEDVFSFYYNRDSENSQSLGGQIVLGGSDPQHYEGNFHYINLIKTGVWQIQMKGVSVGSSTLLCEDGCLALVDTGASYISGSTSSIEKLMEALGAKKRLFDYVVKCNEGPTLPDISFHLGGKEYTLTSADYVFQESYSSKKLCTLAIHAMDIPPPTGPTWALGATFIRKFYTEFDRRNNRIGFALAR

Structures are written as SMILES.

The target of this assay is Recombinant human renin (Homo sapiens, UniProt P00797).

As a reminder, the IC50 is the concentration at which inhibition is half-maximal. Take `COCCCOc1cccc(-n2c(Oc3ccccc3)c(C(=O)N3CCNCC3)c3ccccc32)c1`: the IC50 turned out to be 760 nM.
In the case of `Cc1ccc(F)cc1Oc1c(C(=O)N2CCNCC2)c2ccc(O)cc2n1-c1ccc(F)cc1` it was 18 nM; in that of `Cc1c(F)cccc1Cc1cc2c(cc1O)c(C(=O)N1CCNCC1)c(Cc1cccc(F)c1C)n2-c1ccccc1`, 430 nM.
With `Cc1c(F)cccc1Cc1c(C(=O)N2CCNCC2)c2ccccc2n1-c1ccc(O)nc1`, the concentration for half-maximal inhibition (IC50) turned out to be 9400 nM.
The figure for `O=C(c1c(Oc2ccccc2)n(-c2ccccc2)c2cc(Cl)ccc12)N1CCNCC1` is 540 nM.
